Values quoted from earlier work, collected in patent US10039825B2, “Combination therapy with CD4 lymphocyte depletion and MTOR inhibitors” (Cedars-Sinai Medical Center, priority 2010, dated 2018).

Tested on: metastatic RCC
Settings: cited from earlier work

For “interleukin-2: high dose immune cytokine, standard treatment for metastatic RCC”, the “patients with complete responses” value is given as 5-10%.
